In patent US8633212B2 one finds IC50 data, which are given here for one compound.

Structures are written as SMILES.

In this experiment the target is ectodomain of BACE (aa 1-454) fused to a myc-his tag, secreted from HEK293/BACEect. cells (Homo sapiens (Human), UniProt P56817). Briefly: BACE assay (FRET fluorescence quenching, Example 435; assay format A or B). The settings on record: footnote b: protocols described in Example 435.

Consider `CC(C)N1C(=O)C2(N=C1N)c1cc(OCC3CC3)ccc1CC21CCc2ccccc2CC1` (stereo not shown), for which the IC50 (in general, the point on the concentration scale where inhibition reaches its midpoint) worked out at 79.3 nM. This lies in the double-digit nanomolar range.
